Measurements from ChEMBL document CHEMBL1155009, “7-Aminopyrazolo[1,5-a]pyrimidines as potent multitargeted receptor tyrosine kinase inhibitors” (J Med Chem, 2008).

The chains behind the UniProt entries cited, without tags or fusion partners.
UniProt P35968, whole entry: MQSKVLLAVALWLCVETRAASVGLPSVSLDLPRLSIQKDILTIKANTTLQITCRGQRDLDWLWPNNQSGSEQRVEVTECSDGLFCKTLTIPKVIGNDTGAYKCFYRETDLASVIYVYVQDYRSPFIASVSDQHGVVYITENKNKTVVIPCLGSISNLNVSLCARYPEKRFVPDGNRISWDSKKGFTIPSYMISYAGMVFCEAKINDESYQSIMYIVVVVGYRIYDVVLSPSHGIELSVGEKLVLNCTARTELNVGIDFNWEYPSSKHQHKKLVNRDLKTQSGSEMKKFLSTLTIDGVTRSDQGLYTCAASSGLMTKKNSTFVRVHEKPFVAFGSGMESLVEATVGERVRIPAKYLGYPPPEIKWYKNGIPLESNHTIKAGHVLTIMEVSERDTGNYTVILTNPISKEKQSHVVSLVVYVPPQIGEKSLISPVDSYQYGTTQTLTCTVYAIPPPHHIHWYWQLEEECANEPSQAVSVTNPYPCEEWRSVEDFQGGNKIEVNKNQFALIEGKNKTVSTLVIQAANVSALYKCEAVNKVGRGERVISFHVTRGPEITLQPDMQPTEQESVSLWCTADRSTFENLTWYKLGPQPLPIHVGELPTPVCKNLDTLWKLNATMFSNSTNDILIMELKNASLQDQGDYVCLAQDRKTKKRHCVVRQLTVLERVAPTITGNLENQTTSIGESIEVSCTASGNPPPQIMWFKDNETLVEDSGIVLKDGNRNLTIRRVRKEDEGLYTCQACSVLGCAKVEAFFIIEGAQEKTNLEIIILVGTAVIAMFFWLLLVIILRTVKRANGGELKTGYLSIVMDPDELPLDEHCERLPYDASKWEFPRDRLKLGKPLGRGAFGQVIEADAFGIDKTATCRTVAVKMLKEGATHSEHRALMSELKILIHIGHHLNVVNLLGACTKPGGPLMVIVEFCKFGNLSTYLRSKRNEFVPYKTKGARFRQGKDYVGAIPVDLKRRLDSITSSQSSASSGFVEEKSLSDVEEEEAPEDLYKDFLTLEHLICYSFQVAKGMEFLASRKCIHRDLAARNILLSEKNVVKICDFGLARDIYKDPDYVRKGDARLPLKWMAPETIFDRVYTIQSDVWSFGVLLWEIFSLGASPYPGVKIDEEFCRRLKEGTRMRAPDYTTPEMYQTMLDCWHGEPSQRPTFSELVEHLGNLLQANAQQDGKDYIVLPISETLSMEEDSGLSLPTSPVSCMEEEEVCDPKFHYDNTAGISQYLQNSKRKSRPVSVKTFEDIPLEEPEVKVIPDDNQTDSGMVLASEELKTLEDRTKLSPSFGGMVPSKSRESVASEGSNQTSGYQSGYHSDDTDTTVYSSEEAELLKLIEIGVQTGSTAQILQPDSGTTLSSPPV

Target: Vascular endothelial growth factor receptor 2 (Homo sapiens, UniProt P35968)

COc1ccc(-c2cnc3c(-c4ccsc4)cnn3c2)cc1
IC50: 185 nM
